{
  "sequences": {"note": "By UniProt entry, the sequences of proteins in these tests, tags left out.", "UniProt P25099, whole entry": "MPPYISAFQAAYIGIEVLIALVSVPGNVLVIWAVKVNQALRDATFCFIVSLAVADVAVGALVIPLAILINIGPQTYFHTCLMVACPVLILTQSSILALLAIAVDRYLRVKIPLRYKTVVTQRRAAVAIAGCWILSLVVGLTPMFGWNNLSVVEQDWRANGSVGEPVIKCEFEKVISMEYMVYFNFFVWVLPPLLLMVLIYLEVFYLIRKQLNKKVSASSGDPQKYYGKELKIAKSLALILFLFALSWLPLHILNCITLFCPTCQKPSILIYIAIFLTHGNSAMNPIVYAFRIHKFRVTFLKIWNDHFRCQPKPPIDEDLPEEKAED"},
  "source": "ChEMBL document CHEMBL1129727",
  "about": "“Chiral pyrrolo[2,3-d]pyrimidine and pyrimido[4,5-b]indole derivatives: structure-activity relationships of potent, highly stereoselective A1-adenosine receptor antagonists” (J Med Chem, 1996)",
  "target": "Adenosine receptor A1 (Rattus norvegicus) (UniProt P25099)",
  "assay": "Ratio between solubility and A1 receptor affinity",
  "data": [
    {"compound": "C[C@H](c1ccccc1)n1c2ccccc2c2c(N)nc(-c3ccccc3)nc21", "values": [
      {"measurement": "Ratio", "value": 185}
    ]}
  ]
}
